High-throughput results from PubChem BioAssay.
MC4R ag barr – MC4R agonists recruiting beta-arrestin, primary screen, cell-based, luminescence, agonist arm of biased-ligand search. 360,000 compounds, 0.98% hits. AID 540308, 2011. activation, % at 8.9 µM. Melanocortin receptor 4 (Homo sapiens), P32245. U2OS MC4R beta-arrestin complementation; percent of melanotan II response, DMSO zero;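 active means activation above a per-plate cutoff, the mean activation of sample wells on that plate plus 3 SD, cut at about 8% in these data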
HDAC3 inhib – HDAC3 deacetylase inhibitors, primary screen, biochemical, fluorescence, cell-free homogeneous; 320,000 compounds, 0.15% hits; recombinant HDAC3, fluorogenic peptide/trypsin coupled; inhibition, % at 8.3 µM; Histone deacetylase 3 (Homo sapiens), O15379; in the data active means inhibition above about 26%, passing the limit was not always enough
NALP1 yeast inh – NALP1 inflammasome inhibitors in reconstituted yeast, colorimetric, S. cerevisiae, triplicate retest; S. cerevisiae NALP1/ASC/caspase-1 growth, X-gal OD620, 72 h; inhibition, % at 10 µM; 280,000 compounds, 0.61% hits; in the data active means inhibition mostly above about 24%, no sharp cut-off; inactive means mostly below about 32%
Yeast UUG start – alters start codon recognition fidelity in yeast; S. cerevisiae UUG-firefly luciferase reporter, luminescence/redox ratio; activity score, % at 18.7 µM; actives 0.13% (n = 350,000); AID 602363;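 active = replicate mean at a twofold rise or more, about +100% in these data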;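 also: firefly luciferase made from a UUG start codon reports start codon fidelity; reporter light over untreated wells divided by growth signal over untreated wells; some hits fall short of that in this replicate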
MC4R antag cAMP – MC4R antagonists of cAMP signaling, primary screen, cell-based, TR-FRET, antagonist arm of biased-ligand search; inhibition, % at 6.5 µM; MC4R-expressing cells, MTII-stimulated cAMP, LANCE TR-FRET; AID 540295, 2011; Melanocortin receptor 4 (Homo sapiens), P32245; 360,000 compounds, 0.48% hits;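 active means inhibition above its plate's cutoff, the mean of tested wells on that plate plus 3 SD, cut at about 29% in these data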
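Material: U2OS-MC4R stable cell line | Reagent: Melanotan II challenge after compound preincubation | Doses: One concentration, 6.5 µM nominal | Incubation: 30-min compound preincubation, 1-h Melanotan II challenge, 1-h detection, room temperature | Signal: TR-FRET cAMP assay | Replicates: One well per compound, no replicates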
ALR H2O2 inh – inhibitors of human sulfhydryl oxidase ALR; AID 485317; inhibition, % (no concentration beside the values); purified ALR, DTT oxidation, H2O2 HRP-luminol luminescence; hit rate 3.8% among 290,000;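 active means mean and each replicate at 75% or more; inconclusive means only one of the two met; inactive means neither met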;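 further: stock transfer was 7.5 nL into about 7.5 µL; 0% = neutral wells and 100% = wells with inactivated enzyme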
cAMP nonselect – nonselective cAMP signaling inhibitors, parental cells, counter-screen for MC4R biased antagonist project, cell-based, TR-FRET, U2OS, forskolin, triplicate. AID 602193, 2012. 1,600 compounds, 26% hits. LANCE TR-FRET. inhibition, % at 6.5 µM. shares compounds with MC4R antag cAMP;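 active means mean inhibition over triplicates above the low-control well mean plus 3 SD, set per campaign, cut at about 13% in these data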;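 further: signal is single emission at 671 nm which falls as cellular cAMP rises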
MC4R antag conf – MC4R cAMP antagonists, retest, confirmation, cell-based, TR-FRET; MC4R-expressing cells, MTII-stimulated cAMP; inhibition, % at 6.5 µM; shares compounds with MC4R antag cAMP; 1,600 compounds, 27% hits; in the data active means inhibition above about 29%
A number is an active result. Shown are actives, neighbours in structure and some others; about 4.2% of the full set was active somewhere.

The chains behind the UniProt entries cited, without tags or fusion partners.
Melanocortin receptor 4 (Homo sapiens), P32245, UniProt P32245, whole entry, looked up: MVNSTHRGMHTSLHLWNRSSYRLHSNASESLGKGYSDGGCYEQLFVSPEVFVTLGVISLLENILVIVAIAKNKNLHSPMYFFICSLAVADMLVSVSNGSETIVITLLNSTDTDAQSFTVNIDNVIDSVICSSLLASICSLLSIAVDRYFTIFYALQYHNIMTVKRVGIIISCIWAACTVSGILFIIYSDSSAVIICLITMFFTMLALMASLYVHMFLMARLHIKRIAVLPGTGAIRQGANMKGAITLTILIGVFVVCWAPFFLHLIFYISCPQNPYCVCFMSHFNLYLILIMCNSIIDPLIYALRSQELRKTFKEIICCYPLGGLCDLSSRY

Screening Cc1ccc(NC(=O)c2cc(N3C(=O)C=CC3=O)ccc2N2CCOCC2)cc1Cl returned MC4R ag barr inactive, HDAC3 inhib inactive, NALP1 yeast inh inactive, MC4R antag cAMP 53.8, ALR H2O2 inh inactive, cAMP nonselect inactive and MC4R antag conf 41.4.
Screening COc1ccc(CCNC(=O)C2(C)CCC(=O)N2Cc2ccc(F)cc2Cl)cc1OC (stereo not drawn) returned MC4R ag barr inactive, HDAC3 inhib inactive, NALP1 yeast inh inactive, Yeast UUG start inactive, MC4R antag cAMP 38.9, ALR H2O2 inh inactive, cAMP nonselect inactive and MC4R antag conf inactive.
`O=C(c1ccncc1)N1C[C@H]2[C@@H](c3ccccc31)[C@H](CO)N2C(=O)c1ccccc1F` gave Yeast UUG start inactive.
`Nc1ccc(-n2cnc3cc([N+](=O)[O-])ccc32)cc1` gave MC4R ag barr inactive, HDAC3 inhib inactive, NALP1 yeast inh inactive, Yeast UUG start inactive, MC4R antag cAMP inactive and ALR H2O2 inh inactive.
Nc1ccc2nn(-c3cc([N+](=O)[O-])ccc3O)nc2c1 was read as MC4R ag barr inactive, HDAC3 inhib inactive, NALP1 yeast inh inactive, Yeast UUG start inactive, MC4R antag cAMP 28.8, ALR H2O2 inh inactive, cAMP nonselect inactive and MC4R antag conf inactive.
`O=C1c2ccc([N+](=O)[O-])cc2S(=O)(=O)N1Cc1ccccc1` gave MC4R ag barr inactive, HDAC3 inhib inactive, NALP1 yeast inh inactive, Yeast UUG start inactive, MC4R antag cAMP 32.7, ALR H2O2 inh inactive, cAMP nonselect 28.3 and MC4R antag conf 50.3.
Screening Cc1ccc(NC(=O)CCNC(=O)c2ccccc2Cl)cc1S(=O)(=O)N1CCOCC1 returned MC4R ag barr inactive, Yeast UUG start inactive and MC4R antag cAMP inactive.
`CSCCC(NC(=O)c1ccccc1Cl)C(=O)Nc1ccc(C)c(S(=O)(=O)N2CCOCC2)c1` (stereo not drawn) gave MC4R ag barr inactive, HDAC3 inhib inactive, Yeast UUG start inactive, MC4R antag cAMP 29.2, ALR H2O2 inh inactive, cAMP nonselect inactive and MC4R antag conf inactive.
For CC(C)NC(=O)N1C[C@@H]2[C@H](c3ccccc31)[C@@H](CO)N2C(=O)c1ccccc1F the results were Yeast UUG start inactive.
`C[C@@H]1CN([C@H](C)CO)C(=O)Cc2cc(NC(=O)c3ccncc3)ccc2O[C@H]1CN(C)S(=O)(=O)c1ccc(F)cc1` gave Yeast UUG start inactive.
`CCOC(=O)CC(=O)NC(C)(C)CCCCC(C)(C)NC(=O)CC(=O)OCC` gave MC4R ag barr inactive, HDAC3 inhib inactive, NALP1 yeast inh inactive, Yeast UUG start inactive, MC4R antag cAMP 28.6, ALR H2O2 inh inactive, cAMP nonselect inactive and MC4R antag conf inactive.
`C[C@H](CO)N1C[C@H](C)[C@@H](CN(C)Cc2ccncc2)Oc2ccc(NS(C)(=O)=O)cc2C1=O` gave Yeast UUG start inactive.
O=C(OCC(=O)N1CCCC1=O)c1ncc(Cl)c(Cl)c1Cl was read as MC4R ag barr inactive, HDAC3 inhib inactive, Yeast UUG start inactive, MC4R antag cAMP 31.0, ALR H2O2 inh inactive, cAMP nonselect inactive and MC4R antag conf inactive.
Screening NS(=O)(=O)c1ccc(NC(=O)COC(=O)c2ncc(Cl)c(Cl)c2Cl)cc1 returned MC4R ag barr inactive, HDAC3 inhib inactive, MC4R antag cAMP 32.2, ALR H2O2 inh inactive, cAMP nonselect inactive and MC4R antag conf 28.9.
CCOc1ccc(NC(=O)COC(=O)c2ncc(Cl)c(Cl)c2Cl)cc1 was read as MC4R ag barr inactive, HDAC3 inhib inactive, NALP1 yeast inh inactive, MC4R antag cAMP inactive and ALR H2O2 inh inactive.
